Consider 1 compound from patent US20250332096A1, “BEVERAGE FORMULATION AND METHOD OF PROMOTING CELLULAR HYDRATION BY ENHANCING INTRACELLULAR PERMEATION” (Eastpond Laboratories Limited, priority 2024, published 2025).

The series can be described thus: Viscosity of test solutions. The series is classed as physicochemical. As to conditions: purified water, 2.00%. Here is the method: 1:1 mol/mol stoichiometry complexes were prepared for the experiment. Nicotinic acid/alpha-CD complex was prepared by dissolving 11.22 g nicotinic acid and 98.63 g alpha-CD (89.66 g on dry basis) in 700 ml purified water. Nicotinamide/alpha-CD complex was prepared by dissolving 5.57 g nicotinamide and 49.3 g alpha-CD (44.4 g on dry basis) in 350 ml purified water and L-arginine/alpha-CD complex was prepared by dissolving 15.18 g L-arginine and 94.26 g alpha-CD (85.69 g on dry basis) in 700 ml purified water. Further, for all the three complexes, the liquid was frozen in dry ice bath and lyophilized. The dry lyophilizate was ground and sieved.
Clarity, pH, conductivity, density, viscosity, turbidity, surface tension and osmolality were determined in solutions prepared with purified water. The concentration noted for the complex solutions are indicating the actual alpha cyclodextrin content. Alpha & gamma cyclodextrin mix is a 50-50 weight % mixture of the two constituents and the percentage indicates the total cyclodextrin content.

With `OC[C@H]1O[C@@H]2O[C@H]3[C@H](O)[C@@H](O)[C@@H](O[C@H]4[C@H](O)[C@@H](O)[C@@H](O[C@H]5[C@H](O)[C@@H](O)[C@@H](O[C@H]6[C@H](O)[C@@H](O)[C@@H](O[C@H]7[C@H](O)[C@@H](O)[C@@H](O[C@H]1[C@H](O)[C@H]2O)O[C@@H]7CO)O[C@@H]6CO)O[C@@H]5CO)O[C@@H]4CO)O[C@@H]3CO` [Alpha Cyclodextrin, α-cyclodextrin], the “Viscosity (25 C.)” value is listed as 1.01 cP.
